PMC8907193, “The YΦ motif defines the structure-activity relationships of human 20S proteasome activators” (Nature Communications, 2022)
Like-named read-outs stand apart in the source and are kept apart here.

Sequences of proteins named here, by UniProt entry; tags and fusion partners are left off. A change or cut given only in a name is not applied to a line headed by its entry.
UniProt P60900: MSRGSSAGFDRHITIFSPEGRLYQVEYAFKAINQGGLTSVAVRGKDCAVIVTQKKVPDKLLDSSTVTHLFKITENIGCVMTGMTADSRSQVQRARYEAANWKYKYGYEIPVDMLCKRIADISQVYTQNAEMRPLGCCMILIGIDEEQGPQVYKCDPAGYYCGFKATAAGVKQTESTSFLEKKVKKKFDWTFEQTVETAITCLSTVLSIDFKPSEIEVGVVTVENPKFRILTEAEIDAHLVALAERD

Experiments:
[1] = target: human 20S proteasome (human) (UniProt P60900)
[2] = target: human 20S proteasome (human) (UniProt P60900); remark: listed apart in the source
[3] = target: human 20S proteasome (human) (UniProt P60900); remark: listed apart in the source
[4] = target: human 20S proteasome (human) (UniProt P60900); remark: listed apart in the source
[5] = target: human 20S proteasome (human) (UniProt P60900); remark: listed apart in the source

For MBP^FY, the EC50 of stimulation of h20S activity [1] was > 400 µM.

MBP^YF was tested, and the EC50 of stimulation of h20S activity [1] was 10 µM.

“MBP^YY (Opt5 chimera of maltose-binding protein)” was tested, and the EC50 of stimulation of h20S activity [1] was 41.8 µM.

Work on Opt5 peptide (Ac-NLSYYT) yielded an EC50 of stimulation of suc-LLVY-amc hydrolysis by h20S [2] of 35.5 µM.

With Opt5^FY peptide the stimulation of suc-LLVY-amc hydrolysis by h20S, loss against Opt5^YY [3] was 70 % reduction.

For Opt5^Y4 peptide, the EC50 of stimulation of h20S activity [4] was > 600 µM and the stimulation of h20S activity, loss against Opt5^YF [4] was 80 % reduction.

For Opt5^Y5 peptide, the EC50 of stimulation of h20S activity [4] was > 600 µM and the stimulation of h20S activity, loss against Opt5^YF [4] was 80 % reduction.

With Opt5^YF peptide the EC50 of stimulation of suc-LLVY-amc hydrolysis by h20S [3] was 17.3 µM.

Substance hRpt5 C-terminal peptide ANLQYYA has a stimulation of suc-LLVY-amc turnover by h20S [5] of 3 fold.

Substance hRpt5 peptide with Ala at P4 has a stimulation of suc-LLVY-amc turnover by h20S, against the WT peptide [5] of 1.3 fold over WT.

With hRpt5 peptide with Ala at P6 the stimulation of suc-LLVY-amc turnover by h20S, against the WT peptide [5] was 80 % of WT.
